Earlier results in US11896701B2, “Method for dyeing keratin material, comprising the use of an organic C1-C6 alkoxy silane and tannic acid” (Henkel AG & Co. KGaA, priority 2019, dated 2024).

Conditions: 25° C.

Substance: 3,4,5,6-tetrachloro-2-(1,4,5,8-tetrabromo-6-hydroxy-3-oxoxanthen-9-yl)benzoic acid [Acid Red 92]
- solubility in water: greater than 10 g/L
